The target in one experiment is Trp37→Gly LplA (Escherichia coli, UniProt P32099, W38G). Conditions: 30 min reaction, 500 μM probe; normalized to TCO2/Trp37→Val. The protocol:
(§1) LplA protein was purified as previously described2 and stored at −80° C. in 20 mM Tris-HCl, pH 7.5 supplementated with 10% v/v glycerol. Reactions were quenched with 30 mM EDTA (final concentration) and resolved by HPLC (Varian ProStar) on a C-18 column using a linear gradient of 25-60% acetonitrile in H2O (with 0.1% v/v trifluoroacetic acid) over 14 minutes. Species were detected at 210 nm absorbance. Peaks corresponding to LAP and its trans-cyclooctene adducts were confirmed by ESI mass spectrometry. The extent of conversion was calculated from ratios of peak areas, neglecting minor extinction coefficient changes to LAP due to trans-cyclooctene ligation.
(§2) The relative abilities of wild-type and mutant ligases to ligate TCO1-3 onto LplA acceptor peptide (LAP) were measured by an HPLC assay after 30 min. reaction time. […] Errors, ±1 s. d.

Chains of the proteins cited; added tags and fusions are not shown. Residues count along the entry.
UniProt P32099, 2-338 W38G: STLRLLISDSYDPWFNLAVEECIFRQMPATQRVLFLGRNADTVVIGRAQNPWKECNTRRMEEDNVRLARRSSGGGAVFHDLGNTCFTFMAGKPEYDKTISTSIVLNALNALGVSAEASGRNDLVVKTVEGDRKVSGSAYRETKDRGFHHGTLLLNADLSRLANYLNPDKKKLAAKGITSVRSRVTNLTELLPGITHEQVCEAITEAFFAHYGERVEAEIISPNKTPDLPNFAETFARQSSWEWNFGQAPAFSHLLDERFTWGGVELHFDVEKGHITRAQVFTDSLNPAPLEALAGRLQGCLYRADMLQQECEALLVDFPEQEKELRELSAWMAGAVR
UniProt P32099, 2-338 W38I: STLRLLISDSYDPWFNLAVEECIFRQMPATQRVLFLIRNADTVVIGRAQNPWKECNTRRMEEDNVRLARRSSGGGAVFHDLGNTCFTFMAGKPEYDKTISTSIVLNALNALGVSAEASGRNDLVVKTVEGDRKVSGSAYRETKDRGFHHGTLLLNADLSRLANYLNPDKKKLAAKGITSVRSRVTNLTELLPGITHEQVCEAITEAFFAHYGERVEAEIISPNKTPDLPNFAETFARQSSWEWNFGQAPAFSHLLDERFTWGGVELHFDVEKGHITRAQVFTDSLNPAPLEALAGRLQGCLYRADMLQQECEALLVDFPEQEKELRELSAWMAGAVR
UniProt P32099, 2-338 W38V: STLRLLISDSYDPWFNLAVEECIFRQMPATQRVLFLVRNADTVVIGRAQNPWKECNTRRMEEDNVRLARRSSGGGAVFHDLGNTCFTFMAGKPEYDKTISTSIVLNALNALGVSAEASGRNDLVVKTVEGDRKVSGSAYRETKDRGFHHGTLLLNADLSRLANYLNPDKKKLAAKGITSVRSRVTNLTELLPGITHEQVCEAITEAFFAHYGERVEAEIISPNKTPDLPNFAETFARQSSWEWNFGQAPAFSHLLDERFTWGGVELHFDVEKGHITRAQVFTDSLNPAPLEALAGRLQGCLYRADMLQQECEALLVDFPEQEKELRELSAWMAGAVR

Another experiment has as its target Trp37→Ile LplA (Escherichia coli, UniProt P32099, W38I). The following applies: 30 min reaction, 500 μM probe; normalized to TCO2/Trp37→Val. The protocol:
as §1, §2

For experiment [1], the target named is Trp37→Val LplA (W37VLplA) (Escherichia coli, UniProt P32099, W38V). The following applies: 30 min reaction, 500 μM probe; normalized to TCO2/Trp37→Val. The protocol:
as §1, §2

In a further experiment the target is W37VLplA (Escherichia coli, UniProt P32099, W38V). The procedure:
After 5, 10, 15 and 20 minutes, an aliquot was drawn from the reaction vial, quenched with 30 mM EDTA (final concentration) and the product quantified by HPLC as in Table 3. The plot of product concentration against time was fitted to a linear line whose slope corresponds to the initial velocity. The value of kcat was calculated from the Michaelis-Menten equation Vmax=(kcat)([Enzyme]) at substrate-saturating conditions. Measurements were performed in triplicate.

Regarding `O=C(O)CCCCNC(=O)O[C@H]1CC/C=C/CCC1` (stereo in doubt) [TCO2, rel-(1R-4E-pR)-cyclooct-4-ene-1-yl-N-pentanoic acid carbamate], the “Ligation efficiency (average, normalized product percentage), Trp37→Gly” value at Trp37→Gly LplA came out at 52.6 ± 1.1%. For the same molecule, on Trp37→Ile LplA, the “Ligation efficiency (average, normalized product percentage), Trp37→Ile” value amounted to 77.8 ± 1.6%. In addition, in experiment [1], the “Ligation efficiency (average, normalized product percentage), Trp37→Val” value was 100.0 ± 8.3%. Also, the “kcat slower than ligation of lipoic acid by the same enzyme” value on W37VLplA stood at 2 fold.

The values above are taken from patent publication US20150125904A1, “PROBE INCORPORATION MEDIATED BY ENZYMES” (Massachusetts Institute of Technology, priority 2012, published 2015).
